Target: rabbit thrombin (Oryctolagus cuniculus, UniProt Q28731)
Test: biochemical

- Ki: 1.7 µM
Compound: C[C@@H]1CCC[C@H](n2cnc(-c3cc(Cl)ccc3-n3cc(Cl)nn3)cc2=O)c2cc(ccn2)-c2c(cnn2C(F)F)NC1=O [milvexian]

— PMC9299130 (Journal of Thrombosis and Haemostasis, 2021)
